Data published in published antibiotic growth screens (doi:10.1038/s41589-023-01349-8).
Some of the results follow.

test system: A. baumannii ATCC 17978; assay: relative growth (fraction of control); higher = less inhibition; settings: 50 µM

SMILES	relative growth
CO[C@H](CN(C)C(=O)Nc1ccc(C(F)(F)F)cc1)[C@H](C)CN(Cc1ccccc1Cl)[C@H](C)CO	0.621
COc1ccc([Si](C)(C)[C@@H]2[C@@H](CCn3cc(CCO)nn3)O[C@]3(C(=O)N(Cc4ccc(N5C(=O)c6cccc7cccc5c67)cc4)c4ccccc43)[C@H]2C)cc1	1.18
COC(=O)N[C@H](C(=O)N[C@@H](Cc1ccccc1)[C@@H](O)CN(Cc1ccc(-c2ccccn2)cc1)NC(=O)[C@@H](NC(=O)OC)C(C)(C)C)C(C)(C)C.O=S(=O)(O)O	0.826
Cc1ccc(S(=O)(=O)N2C[C@@H](O)COC[C@H]3O[C@@H](CC(=O)NCc4ccc5c(c4)OCO5)CC[C@@H]32)cc1	0.961
CN1CCN(C(=O)C[C@H]2CC[C@@H]3[C@H](COC[C@H](O)CN3Cc3ccc4c(c3)OCO4)O2)CC1	1.01
C[C@H](CO)N1C[C@H](C)[C@@H](CN(C)C(=O)Nc2ccc3c(c2)OCO3)Oc2ncc(-c3cncnc3)cc2C1=O	1.22
CCN(CC)Cc1ccc(Nc2ccnc3cc(Cl)ccc23)cc1O.Cl.Cl	0.77
S=C1SCN(Cc2ccccc2)CN1Cc1ccccc1	1.28
O=C(O)c1cc2cc(Cl)ccc2[nH]1	1.14
O=c1ccc(=O)n(CCO)[nH]1	1.01
CN1CCN(C2=Nc3cc(Cl)ccc3Nc3ccccc32)CC1	0.917
CO[C@H](CN(C)S(=O)(=O)c1cccc(Cl)c1)[C@@H](C)CN([C@H](C)CO)S(=O)(=O)c1cccc(Cl)c1	1.1
Nc1cnn(-c2ccccc2)c(=O)c1N	0.854
Cc1nccnc1N1CCCCC1.O=S(=O)(O)O	1
COC(=O)CSc1cc(C)nc(N)n1	1
CCCCCCCCCCCCCCCC(=O)NCCO	0.995
Cc1cc(C(C)(C)C)cc(C)c1CC1=NCCN1.Cl	1.19
COC(=O)C(CC#Cc1ccc2c(c1)[C@]1(C(=O)N2)[C@H](C(=O)N2CCc3cc(OC)c(OC)cc3C2)[C@H]2C(=O)O[C@H](c3ccccc3)[C@H](c3ccccc3)N2[C@@H]1c1ccc(OCCO)cc1)C(=O)OC	1.46
CO[C@@H]1CN(C)C(=O)c2ccc(NC(=O)C3CC3)cc2OC[C@H](C)N(C(=O)CN2CCOCC2)C[C@H]1C	0.979
O=C(C[C@H]1C=C[C@H](NC(=O)Cc2ccccn2)[C@@H](CO)O1)NCCCN1CCOCC1	1.06
CNC(=O)C[C@H]1CC[C@@H]2[C@H](COC[C@H](O)CN2C(=O)c2ccccn2)O1	0.984
C=C1C2CC[C@@]3(C)[C@H](c4ccoc4)OC(=O)C[C@]13O[C@H]1CC(O)C(C)(C)C(CC(=O)OC)[C@@]21C (stereo partly drawn) [3alpha-HYDROXY-3-DEOXYANGOLENSIC ACID METHYL ESTER]	1.04

SMILES	relative growth
O=C(O)c1n[nH]c2c1CCCC2	0.937
C[C@H](CO)N1C[C@H](C)[C@H](CN(C)Cc2ccc(F)cc2)Oc2cc(C#CC(C)(C)O)ccc2S1(=O)=O	0.87
CN1C(=O)[C@@H]2[C@H](N=CN2CCCO)N(C)C1=O	0.991
Cc1ccc(-c2nc(Nc3ccccc3F)sc2C)cc1	1.12
C#Cc1ccc(C(=O)NO)cc1	0.945
COc1cccc(OC)c1C(=O)NCCCO	0.922
c1ccc([C@@H]2Oc3ccccc3[C@@H]3Oc4ccccc4C[C@@H]23)cc1	1.18
O=C(C1=C[C@H](c2coc3ccccc3c2=O)C[C@H](OCCCCO)O1)N1CCN(Cc2ccc3c(c2)OCO3)CC1	1.08
CN1C(=O)Cc2cc(NS(C)(=O)=O)ccc21	0.944
CO[C@H](CN(C)C(=O)c1ccc2c(c1)OCO2)[C@H](C)CN([C@H](C)CO)S(=O)(=O)c1ccc(C)cc1	0.966
CCc1cnc2c(c1OC)c(=O)[nH]c(=O)n2C	0.94
Cc1c(N(C)CS(=O)(=O)[O-])c(=O)n(-c2ccccc2)n1C.[Na+]	0.975
C=CCC[C@H](Cc1ccc(F)cc1)C(=O)OC[C@H](Cc1c[nH]c2ccccc12)NC(=O)[C@H](CC=C)CC(=O)N(CCO)Cc1ccccc1	1.62
CC(C)CC#Cc1ccc2c(c1)O[C@H](CN(C)C(=O)NC1CCCC1)[C@@H](C)CN([C@H](C)CO)S2(=O)=O	0.867
CC(=O)Nc1ccc(C(=O)NN)cc1	0.957
CSC[C@H]1O[C@H](n2ccc3c(N)ncnc32)[C@@H](O)[C@H]1O	1.07
O=C(CN1CCOCC1)N[C@@H]1CC[C@@H](CCn2cc(C3CC3)nn2)O[C@H]1CO	1.04
CC(C)NC(=O)N[C@H]1C=C[C@H](CC(=O)NCCCN(C)C)O[C@H]1CO	1.07
Cn1cnc(S(=O)(=O)N[C@@H]2CC[C@H](CC(=O)Nc3ccccc3)O[C@H]2CO)c1	0.938
Cc1ccc(C(=N)NO)n1C	0.967
NNC(=O)c1ccc(/C=N\O)nc1	1.14
CCCNC(=O)N[C@@H]1C=C[C@H](CC(=O)N2CCN(C)CC2)O[C@H]1CO	1.04

SMILES	relative growth
CCOCCn1c(N2CCCN(C)CC2)nc2ccccc21.O=C(O)/C=C/C(=O)O.O=C(O)/C=C/C(=O)O	1.04
CC[C@@]1(C)OC(=O)N(C)C1=O	0.966
O=C(C[C@H]1CC[C@H](NC(=O)CN2CCOCC2)[C@@H](CO)O1)NC1CCC1	1.11
CC(C)CC#Cc1ccc2c(c1)O[C@@H](CN(C)C(=O)Cc1ccncc1)[C@@H](C)CN([C@@H](C)CO)S2(=O)=O	0.977
CCCS(=O)(=O)N1CCC[C@H](C(=O)NC)C1	1.01
O=C(CN1CCOCC1)N[C@@H]1CC[C@@H](CCNC(=O)C2CCC2)O[C@H]1CO	0.979
Cc1ccc(-c2ccc(N)cc2)cc1	1.09
CC1CCc2c(N3CCC(O)CC3)c(F)cc3c(=O)c(C(=O)O)cn1c23 (stereo not drawn)	0.153
COc1cccc(NC(=O)N[C@H]2C=C[C@@H](CC(=O)N3CCN(C)CC3)O[C@@H]2CO)c1	1.1
COCC(=O)N1C[C@@H](C)[C@@H](OC)CN(C)C(=O)c2ccc(NC(=O)Nc3ccccc3)cc2OC[C@H]1C	0.971
CCCc1cc(=O)oc2cc3occ(-c4ccccc4)c3cc12	1.07
O=C(C[C@@H]1CC[C@@H]2[C@H](COC[C@H](O)CN2C(=O)C2CC2)O1)NCc1ccncc1	1.18
Cc1cc(=O)n(-c2ccccc2)n1C	0.975
O=c1c2ccccc2oc2ccccc12	1.04
C[C@@H]1O[C@@H](O[C@@H]2[C@@H](O)[C@H](O)[C@@H](CO)O[C@H]2c2c(O)cc(O)c3c(=O)cc(-c4ccc(O)cc4)oc23)[C@H](O)[C@H](O)[C@H]1O	1.09
CC(=O)Oc1cncc(C(=O)O)c1	1.03
CCC(=O)Nc1nc(C(=O)NC)cs1	1.01
Cc1cccc(S(=O)(=O)N2C[C@@H](O)COC[C@@H]3O[C@H](CC(=O)N4CCN(C)CC4)CC[C@H]32)c1	1.07
O=C(Nc1ccccc1)c1ccco1	1
C[C@H]1CN([C@@H](C)CO)S(=O)(=O)c2ccc(-c3ccc(C(=O)N(C)C)cc3)cc2O[C@@H]1CN(C)C(=O)Cc1ccccn1	1
COc1cnc(SC)n(C)c1=O	0.889
N[C@H](c1ccc2c(c1)OCCO2)c1ccco1	0.994

SMILES	relative growth
CN(C)C(=O)C[C@@H]1C=C[C@H](NC(=O)C2CCOCC2)[C@H](CO)O1	1.04
CC(C)C#Cc1ccc2c(c1)O[C@@H](CN(C)C(=O)c1cccc(F)c1)[C@H](C)CN([C@H](C)CO)S2(=O)=O	0.99
O=C(CN1CCOCC1)N[C@@H]1CC[C@@H](CCNS(=O)(=O)c2ccccc2F)O[C@@H]1CO	0.747
C[C@H](NC(=O)C[C@H]1CC[C@@H](NC(=O)CN2CCOCC2)[C@@H](CO)O1)c1ccccc1	1.15
CCCc1ncc(C[n+]2ccccc2C)c(N)n1.[Cl-]	1.28
COCC#Cc1ccc2c(c1)O[C@@H](CN(C)C(=O)Nc1ccccc1F)[C@H](C)CN([C@@H](C)CO)S2(=O)=O	0.986
Cc1ccc(S(=O)(=O)N2C[C@@H](O)COC[C@H]3O[C@H](CC(=O)NCc4ccc5c(c4)OCO5)CC[C@@H]32)cc1	0.849
CCCCC(=O)C1CCC(c2ccc(Cl)cc2)CC1 (stereo not drawn)	0.772
C[C@@H]1CC[C@H](C)N1c1cc(C(F)(F)F)cc(C(F)(F)F)c1	1.05
CN1CC(=O)NC1=N	0.998
CO[C@@H]1CN(C)C(=O)c2ccc(NC(=O)C3CC3)cc2OC[C@@H](C)N(C(=O)Cc2ccccn2)C[C@@H]1C	1.09
CC1(C)CC(/C=C/c2ccccc2)=Nc2ccccc2N1	0.894
CC(C)(C(=O)c1cccnc1)c1cccnc1	0.923
C[C@H]1O[C@@H](O[C@H]2[C@@H](O)C[C@H](O[C@H]3[C@@H](O)C[C@H](O[C@H]4CC[C@]5(C)C6C[C@@H](O)[C@]7(C)[C@@H](C8=CC(=O)OC8)CC[C@]7(O)C6CC[C@@H]5C4)O[C@@H]3C)O[C@@H]2C)C[C@H](O)[C@@H]1O (stereo partly drawn)	1.07
O=C(C[C@H]1C=C[C@@H](NC(=O)CN2CCOCC2)[C@H](CO)O1)NCCc1ccccc1	0.953
C=CC[C@@H](CC(=O)N[C@H](CO)Cc1ccccc1)C(=O)N[C@@H](C)COC(=O)[C@H](CC=C)CC(=O)OC(C)(C)C	0.839
O=C(C[C@H]1CC[C@H](NC(=O)c2cnccn2)[C@H](CO)O1)NCc1ccccc1F	0.941
Cc1ccc(S(=O)(=O)NC2=NCN(CCN3CCOCC3)CN2)cc1	0.971
O=CNC(=O)c1ccccc1C(=O)O	1
CO[C@H](CN(C)S(=O)(=O)c1ccc(F)cc1)[C@@H](C)CN([C@@H](C)CO)S(=O)(=O)c1cccc(Cl)c1	0.674
O=C(CN1CCOCC1)NCC[C@H]1CC[C@H](NC(=O)Nc2ccccc2)[C@H](CO)O1	0.93
CCN(CC)CCOCCOC(=O)C1(c2ccccc2)CCCC1.O=C(O)CC(O)(CC(=O)O)C(=O)O	1.06
